{"sequences": {"note": "The chains behind the UniProt entries cited, without tags or fusion partners. Where a name states a change or a piece, a line headed by the entry shows the natural chain unless it says otherwise.", "UniProt P0DPD6": "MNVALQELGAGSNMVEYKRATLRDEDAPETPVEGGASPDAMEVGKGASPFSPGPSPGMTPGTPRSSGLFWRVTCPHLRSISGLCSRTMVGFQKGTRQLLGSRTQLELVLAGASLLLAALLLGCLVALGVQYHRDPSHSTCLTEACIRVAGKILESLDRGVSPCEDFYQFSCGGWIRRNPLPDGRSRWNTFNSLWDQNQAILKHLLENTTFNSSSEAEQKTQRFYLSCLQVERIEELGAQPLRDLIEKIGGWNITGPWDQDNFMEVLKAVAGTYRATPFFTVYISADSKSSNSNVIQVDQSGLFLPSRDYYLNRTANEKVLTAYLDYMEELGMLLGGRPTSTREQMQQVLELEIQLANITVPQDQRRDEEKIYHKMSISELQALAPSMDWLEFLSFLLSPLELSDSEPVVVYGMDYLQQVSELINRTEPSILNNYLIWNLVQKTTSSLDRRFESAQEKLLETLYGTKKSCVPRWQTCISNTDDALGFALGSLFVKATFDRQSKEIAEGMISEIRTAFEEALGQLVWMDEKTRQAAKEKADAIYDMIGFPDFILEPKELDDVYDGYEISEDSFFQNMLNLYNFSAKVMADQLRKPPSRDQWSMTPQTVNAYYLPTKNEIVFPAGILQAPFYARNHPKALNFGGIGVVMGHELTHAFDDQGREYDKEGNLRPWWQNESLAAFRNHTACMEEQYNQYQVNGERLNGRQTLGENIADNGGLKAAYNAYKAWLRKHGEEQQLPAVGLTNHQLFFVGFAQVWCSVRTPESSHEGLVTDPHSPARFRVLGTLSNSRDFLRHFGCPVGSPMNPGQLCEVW"}, "source": "paper PMC7664906", "about": "(International Journal of Molecular Sciences, 2020)", "molecular_target": "ECE-2 (Homo sapiens, UniProt P0DPD6)", "assay": "In vitro peptide stability to ECE-2 by HPLC", "settings": "0.25 µg ECE-2, pH 5.5 (GLP-1 also at neutral pH), 37 °C, up to 24 h, HPLC quantification, n = 2-3"}
{"compound": "CC[C@H](C)[C@H](NC(=O)[C@H](Cc1ccccc1)NC(=O)[C@H](CCC(=O)O)NC(=O)[C@H](CCCCN)NC(=O)[C@H](C)NC(=O)[C@H](C)NC(=O)[C@H](CCC(N)=O)NC(=O)CNC(=O)[C@H](CCC(=O)O)NC(=O)[C@H](CC(C)C)NC(=O)[C@H](Cc1ccc(O)cc1)NC(=O)[C@H](CO)NC(=O)[C@H](CO)NC(=O)[C@@H](NC(=O)[C@H](CC(=O)O)NC(=O)[C@H](CO)NC(=O)[C@@H](NC(=O)[C@H](Cc1ccccc1)NC(=O)[C@@H](NC(=O)CNC(=O)[C@H](CCC(=O)O)NC(=O)[C@H](C)NC(=O)[C@@H](N)Cc1c[nH]cn1)[C@@H](C)O)[C@@H](C)O)C(C)C)C(=O)N[C@@H](C)C(=O)N[C@@H](Cc1c[nH]c2ccccc12)C(=O)N[C@@H](CC(C)C)C(=O)N[C@H](C(=O)N[C@@H](CCCCN)C(=O)NCC(=O)N[C@@H](CCCNC(=N)N)C(N)=O)C(C)C", "values": [{"measurement": "In vitro peptide degradation by / resistance to ECE-2 (in words)", "value": "extensive peptide degradation"}]}
